Assay results published in patent publication US10307425B2, “Compositions and methods for treating toxoplasmosis, cryptosporidiosis and other apicomplexan protozoan related diseases” (UNIVERSITY OF WASHINGTON, priority 2015, dated 2019).
pIC50: −log10 of the molar value.

Amino acid sequences for entries named in this document (tags omitted). Residues count along the entry.
UniProt Q9BJF5, 1-507: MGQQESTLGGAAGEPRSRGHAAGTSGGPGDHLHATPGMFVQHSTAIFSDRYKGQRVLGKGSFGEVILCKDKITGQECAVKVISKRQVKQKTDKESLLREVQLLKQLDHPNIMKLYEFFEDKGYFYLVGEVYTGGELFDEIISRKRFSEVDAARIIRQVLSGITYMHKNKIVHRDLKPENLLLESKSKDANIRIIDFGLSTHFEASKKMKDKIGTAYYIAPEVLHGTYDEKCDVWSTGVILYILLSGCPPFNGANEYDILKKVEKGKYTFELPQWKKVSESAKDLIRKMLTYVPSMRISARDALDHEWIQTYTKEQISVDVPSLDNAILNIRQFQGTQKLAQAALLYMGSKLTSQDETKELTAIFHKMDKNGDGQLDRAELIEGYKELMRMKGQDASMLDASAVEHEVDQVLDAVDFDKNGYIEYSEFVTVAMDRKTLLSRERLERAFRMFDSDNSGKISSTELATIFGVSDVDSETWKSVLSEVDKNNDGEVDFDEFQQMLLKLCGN

Biological target: TgCDPK1 (Toxoplasma gondii, UniProt Q9BJF5)
Test: biochemical

Question: `COCCOc1ccc2cc(-c3nn(CC4CCN(C)CC4)c4ncnc(N)c34)ccc2c1` [Example 11, 3-(6-(2-Methoxyethoxy)naphthalen-2-yl)-1-((1-methylpiperidin-4-yl)methyl)-1H-pyrazolo[3,4-d]pyrimidin-4-amine] was tested. Which pIC50 did it give?
Answer: Its pIC50 is 7.81.
